Measured values taken from patent publication US20200040358A1 (published 2020).

T1: NY-ESO-1 anchor optimized peptide peptide on HLA-A*02:01 (human)
T1 peptide: SLLMWITQV


Experiments:
[1] = target: T1, NY-ESO-1 anchor optimized peptide …; assay: multimer staining
[2] = target: T1, NY-ESO-1 anchor optimized peptide …; assay: activation reporter or marker

Binder | binding result [1] | binding result [2]
TCR18168 (TCR, V domains shown) Valpha: QSVAQPEDQVNVAEGNPLTVKCTYSVSGNPYLFWYVQYPNRGLQFLLKYITGDNLVKGSYGFEAEFNKSQTSFHLKKPSALVSDSALYFCAVRELYSGAGSYQLTFGKGTKLSVIP Vbeta: QKPSRDICQRGTSLTIQCQVDSQVTMMFWYRQQPGQSLTLIATANQGSEATYESGFVIDKFPISRPNLTFSTLTVSNMSPEDSSIYLCSVGGAGVTDTQYFGPGTRLTVL | recognises | 
TCR0018 (TCR, V domains shown) Valpha: QSVAQPEDQVNVAEGNPLTVKCTYSVSGNPYLFWYVQYPNRGLQFLLKYITGDNLVKGSYGFEAEFNKSQTSFHLKKPSALVSDSALYFCAVRDLSDGAGSYQLTFGKGTKLSVIP Vbeta: QKPSRDICQRGTSLTIQCQVDSQVTMMFWYRQQPGQSLTLIATANQGSEATYESGFVIDKFPISRPNLTFSTLTVSNMSPEDSSIYLCSVGGAGVTDTQYFGPGTRLTVL |  | recognises
TCR0022 (TCR, V domains shown) Valpha: QSVAQPEDQVNVAEGNPLTVKCTYSVSGNPYLFWYVQYPNRGLQFLLKYITGDNLVKGSYGFEAEFNKSQTSFHLKKPSALVSDSALYFCAVRDDLVGAGSYQLTFGKGTKLSVIP Vbeta: QKPSRDICQRGTSLTIQCQVDSQVTMMFWYRQQPGQSLTLIATANQGSEATYESGFVIDKFPISRPNLTFSTLTVSNMSPEDSSIYLCSVGGAGVTDTQYFGPGTRLTVL |  | recognises
